This note sets out measurements from patent US12071411B2, “Inhibitors of HIF-2α and methods of use thereof” (ARCUS BIOSCIENCES, INC., priority 2021, dated 2024).

Chains of the proteins cited; added tags and fusions are not shown. Residues count along the entry.
UniProt Q99814, 240-350: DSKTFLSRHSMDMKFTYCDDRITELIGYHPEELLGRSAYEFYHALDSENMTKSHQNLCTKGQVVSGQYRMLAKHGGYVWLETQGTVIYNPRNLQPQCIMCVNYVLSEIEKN

For assay [1], the target named is T1, HIF-2α (Homo sapiens, UniProt Q99814). The assay can be described thus: HIF-2α Luciferase Reporter Assay (serum), HRE-luciferase 786-0 cells in 100% human serum. It is filed as cell-based. Here is the method:
(§1) Generation of HIF-2α Luciferase 786-0 Cell Line:
(§2) Stable cell lines were generated by transducing 786-0 cells (ATCC, CRL-1932) with Cignal Lenti HIF Luc Reporter lentivirus (CLS-007L, Qiagen) according to the manufacturer's guidelines. In brief, 0.3×10^6 786-0 cells were transduced with lentivirus at a multiplicity of infection (MOI) of 25 for 24 hours. After transduction, cells were replenished with fresh RPMI 1640 Medium (Cat. No. 11875085, Thermo Fisher) supplemented with 10% FBS (Cat. No. A3160502, Gibco), 2 mM GlutaMAX™ (Cat. No. 35050-061, Invitrogen) and 100 units of penicillin and 100 μg of streptomycin/mL (Cat. No 15070063, Thermo Fisher) for another 24 hours. Antibiotic selection was performed in cell media containing 4 μg/mL of puromycin. After 7 days of antibiotic selection, stable pools of surviving cells were expanded and used in a luciferase reporter assay.
HIF-2α Luciferase Reporter Assay (Serum):
An HRE-luciferase stable reporter 786-0 cell line was maintained in active culture using RPMI 1640 (GIBCO) media supplemented with 1% penicillin-streptomycin, 1% GlutaMAX™, 10% FBS-One Shot (GIBCO) and 4 ug/ml of puromycin (Invitrogen). On the day of the assay, cells were harvested using StemPro™ Accutase™ cell dissociation reagent (GIBCO) and resuspended at 1.5 million cells per milliliter in Opti-MEM™ (GIBCO). 20 ul/well of the resuspended cells were dispensed into a 384 white tissue culture-treated microplate (Corning) and allowed to incubate at 37° C., 5% CO2 for 3 hours. Compounds were prepared by dispensing 0.8 ul of compound in 100% DMSO into a Greiner plate containing 40 ul/well of 100% human serum (Bioreclamation IVT). After 3 hours, media was removed via centrifugation at 500 RPM for 30 seconds and 30 ul/well of compound diluted in human serum was added. The plate was incubated overnight at 37° C., 5% CO2. […] 40 ul/well of ONE-Glo™ reagent was added and allowed to incubate for 10 minutes before reading the luminescence signal on the Envision (PerkinElmer). Data was analyzed using 4-parameter logistic equation to generate IC50.
(In general: Reporter assays use an easily measured gene product as a stand-in for the process of interest.)

In assay [2] the target is T2, Biotin tagged HIF-2α protein containing PAS-B domain (240-350) (Homo sapiens, UniProt Q99814).
T2 construct: Biotin tagged HIF-2α protein containing PAS-B domain (240-350) was prepared and purified in-house; made in house
The assay can be described thus: HIF-2α Scintillation Proximity Assay (SPA) binding assay. The note with it: 50 nM HIF-2α protein, 25 nM 3H-tracer, 2% DMSO. As to the method:
HIF-2α Scintillation Proximity Assay (SPA) Binding Assay:
Tritium labeled compound N-(3-chlorophenyl)-4-nitro-2,1,3-benzoxadiazol-5-amine was obtained from American Radiolabeled Chemicals Inc. and copper chelate PVT SPA beads were from PerkinElmer (Cat #RPNQ0009). Biotin tagged HIF-2α protein containing PAS-B domain (240-350) was prepared and purified in-house.
Compounds solubilized in DMSO were dispensed into a white 384-well polystyrene non-binding flat clear bottom plate (Greiner Bio-One, Cat #781903) using an HP D300 dispenser. Ten microliters of biotinylated HIF-2α protein in buffer (25 mM Tris-HCl, pH 7.4, 150 mM NaCl, 0.15% BSA and 0.001% Tween 20) was added to the compound wells and allowed to incubate for 1 hour at room temperature. Ten microliters of SPA bead mix were added to the wells and incubated for an additional 45 minutes, followed by 10 ul of ^3H-tracer solution. Final assay conditions comprised 50 nM HIF-2α protein, 25 nM radiolabeled tracer and 3 ug beads per well with compounds in 2% DMSO. The plate was read using a MicroBeta Microplate Counter (PerkinElmer) for luminescence detection. The IC50 values of the test compounds were determined from compound dose response curves fitted using a standard four parameter fit equation and are reported in Table 2.
In general terms: Scintillation proximity formats need no separation of bound from free tracer.

The target of assay [3] is T1, HIF-2α. The assay can be described thus: HIF-2α Luciferase Reporter Assay (serum free) in HIF-Luc-786-0 cells. It is filed as cell-based. Here is the method:
as §1
as §2, with “Antibiotic selection was performed in cell media containing 4 μg/mL of puromycin. After 7 days of antibiotic selection, stable pools of surviving cells were expanded and used in a luciferase reporter assay.” left out
On day one, 20 uL of HIF-Luc-786-0 cells in Opti-MEM™ (Cat. No. 31985088, Thermo Fisher) were seeded into each well of a 384 well white opaque plate (Corning 3570) and incubated at 37° C. and 5% CO2. […] After 20 hours incubation at 37° C. and 5% CO2, luciferase activity was determined using ONE-Glo™ Luciferase Assay Reagent (E6110, Promega) following the manufacture's recommended procedure. Briefly, 40 uL of ONE-Glo™ luciferase reagents were added to each well and luciferase signals were measured using an Envision 2102 Multilabel Reader. Percentage maximum activity in each test well was calculated based on DMSO (maximum activity) and no cell control wells (baseline activity). […]

Read-outs that look alike come from different tables or passages of the source.

Take `CO[C@H](CCn1nc(C(F)(F)F)c2c1CCC(F)(F)[C@H]2O)C(F)(F)F` [Example 12, (4S)-5,5-difluoro-1-[(3R)-4,4,4-trifluoro-3-methoxybutyl]-3-(trifluoromethyl)-6,7-dihydro-4H-indazol-4-ol]: at HIF-2α [1] (ratio of IC50 in 100% serum to IC50 in serum free conditions, approximate), the “Serum Shift (approximate)” value was 5.
Consider `COC(CCn1nc(C(F)(F)F)c2c1CCC(F)(F)[C@H]2O)C(F)(F)F` (stereo partly drawn) [Example 17, (4S)-5,5-difluoro-1-(4,4,4-trifluoro-3-methoxybutyl)-3-(trifluoromethyl)-6,7-dihydro-4H-indazol-4-ol], for which the IC50 (commonly the concentration needed to halve the response being measured) was under 100 nM in assay [2], under 100 nM at HIF-2α [3] and 100 to 1000 nM against HIF-2α [1]. The “Serum Shift (approximate)” value at HIF-2α [1] is 5.
